How the values were obtained:
Type in all cases: biochemical
panel of kinases = panel of kinases (Homo sapiens, UniProt P51813); experiment: Inhibition of a panel of kinases (in vitro HotSpot kinase assay, 33P-ATP, 1 μM ATP), other kinases; conditions: read-out: BMX-WT IC50, BMX wild-type
Procedure: (§1) Example 63: Inhibition of a Panel of Kinases The degree of inhibition of a panel of kinases is determined using the in vitro HotSpot kinase assay (purified enzymes, ^33P-ATP, an appropriate substrate and 1 μM ATP).

Amino acid sequences for entries named in this document (tags omitted).
UniProt P51813, whole entry: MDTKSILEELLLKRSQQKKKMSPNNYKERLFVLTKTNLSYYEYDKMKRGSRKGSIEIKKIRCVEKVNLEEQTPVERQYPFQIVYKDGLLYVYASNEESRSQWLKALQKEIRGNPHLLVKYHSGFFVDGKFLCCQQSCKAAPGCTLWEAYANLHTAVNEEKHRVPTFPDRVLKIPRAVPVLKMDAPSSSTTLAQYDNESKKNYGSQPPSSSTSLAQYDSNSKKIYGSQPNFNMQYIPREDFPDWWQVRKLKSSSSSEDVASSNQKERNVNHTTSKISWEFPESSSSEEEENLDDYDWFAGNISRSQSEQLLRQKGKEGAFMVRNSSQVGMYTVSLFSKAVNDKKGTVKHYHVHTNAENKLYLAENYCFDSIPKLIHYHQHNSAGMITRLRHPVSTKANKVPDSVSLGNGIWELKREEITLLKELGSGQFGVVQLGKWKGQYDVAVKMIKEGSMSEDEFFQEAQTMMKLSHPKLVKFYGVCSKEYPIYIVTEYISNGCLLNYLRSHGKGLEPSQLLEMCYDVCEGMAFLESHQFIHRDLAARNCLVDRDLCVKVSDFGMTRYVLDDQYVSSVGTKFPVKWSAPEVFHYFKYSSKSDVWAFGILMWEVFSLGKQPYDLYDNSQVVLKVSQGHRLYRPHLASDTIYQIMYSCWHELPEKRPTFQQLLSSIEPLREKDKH
UniProt Q06187, whole entry: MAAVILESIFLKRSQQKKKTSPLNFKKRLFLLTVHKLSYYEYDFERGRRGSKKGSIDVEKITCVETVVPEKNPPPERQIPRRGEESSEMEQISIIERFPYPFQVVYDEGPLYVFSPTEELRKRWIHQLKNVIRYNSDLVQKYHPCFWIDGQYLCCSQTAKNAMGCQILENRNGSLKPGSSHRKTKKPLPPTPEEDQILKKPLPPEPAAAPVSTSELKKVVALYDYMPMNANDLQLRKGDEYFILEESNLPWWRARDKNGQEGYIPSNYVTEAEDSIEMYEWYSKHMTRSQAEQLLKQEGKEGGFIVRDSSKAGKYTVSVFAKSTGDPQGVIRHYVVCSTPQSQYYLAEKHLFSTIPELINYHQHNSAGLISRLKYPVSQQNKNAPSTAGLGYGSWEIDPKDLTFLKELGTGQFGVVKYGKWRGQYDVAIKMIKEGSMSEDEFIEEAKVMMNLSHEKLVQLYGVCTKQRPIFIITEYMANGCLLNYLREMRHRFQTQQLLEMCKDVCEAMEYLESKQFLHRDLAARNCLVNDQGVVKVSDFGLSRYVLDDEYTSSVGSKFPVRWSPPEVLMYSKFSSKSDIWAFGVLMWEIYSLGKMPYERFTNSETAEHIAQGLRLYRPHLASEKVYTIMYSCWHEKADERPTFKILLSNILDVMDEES
UniProt P42680, whole entry: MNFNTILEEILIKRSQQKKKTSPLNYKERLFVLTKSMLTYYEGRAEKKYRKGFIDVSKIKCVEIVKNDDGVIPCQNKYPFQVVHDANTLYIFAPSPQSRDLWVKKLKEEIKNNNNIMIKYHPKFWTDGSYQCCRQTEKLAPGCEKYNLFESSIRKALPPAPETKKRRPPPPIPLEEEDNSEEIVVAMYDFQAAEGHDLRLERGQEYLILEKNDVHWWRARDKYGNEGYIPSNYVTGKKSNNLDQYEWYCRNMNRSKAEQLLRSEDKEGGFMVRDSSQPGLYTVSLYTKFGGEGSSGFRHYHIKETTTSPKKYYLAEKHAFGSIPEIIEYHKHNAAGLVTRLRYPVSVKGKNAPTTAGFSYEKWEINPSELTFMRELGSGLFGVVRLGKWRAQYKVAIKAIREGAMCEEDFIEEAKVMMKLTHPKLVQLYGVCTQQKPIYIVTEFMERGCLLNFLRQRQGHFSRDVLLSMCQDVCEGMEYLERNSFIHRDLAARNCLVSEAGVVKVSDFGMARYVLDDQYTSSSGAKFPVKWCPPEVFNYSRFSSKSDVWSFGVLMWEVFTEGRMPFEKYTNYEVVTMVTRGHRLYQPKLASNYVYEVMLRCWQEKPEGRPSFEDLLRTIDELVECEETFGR

Btk = Btk (Homo sapiens, UniProt Q06187); experiment: Btk in vitro inhibitory activity (one of Method A TR-FRET, Method B electrophoretic mobility shift, Method C radiometric filter binding); conditions: read-out: Btk-WT IC50; wild-type Btk
Procedure: Example 62a: Btk In Vitro Inhibitory Activity (Method A)
Btk kinase activity is determined using a time-resolved fluorescence resonance energy transfer (TR-FRET) methodology. Measurements are performed in a reaction volume of 50 μL using 96-well assay plates. Kinase enzyme, inhibitor, ATP (at the Km for the kinase), and 1 μM peptide substrate (Biotin-AVLESEEELYSSARQ-NH2) are incubated in a reaction buffer composed of 20 mM Tris, 50 mM NaCl, MgCl2 (5-25 mM depending on the kinase), MnCl2 (0-10 mM), 1 mM DTT, 0.1 mM EDTA, 0.01% bovine serum albumin, 0.005% Tween-20, and 10% DMSO at pH 7.4 for one hour. […] The TR-FRET signal is measured on a multimode plate reader with an excitation wavelength (λEx) of 330 nm and detection wavelengths (λEm) of 615 and 665 nm. Activity is determined by the ratio of the fluorescence at 665 nm to that at 615 nm. For each compound, enzyme activity is measured at various concentrations of compound. Negative control reactions are performed in the absence of inhibitor in replicates of six, and two no-enzyme controls are used to determine baseline fluorescence levels. […]
Kinase activity is measured in vitro using electrophoretic mobility shift assay. […] The terminated reactions are analyzed using a 12 channel LabChip® 3000 microfluidic detection instrument (Caliper Life Sciences). […] As substrate and product peptides are separated, two peaks of fluorescence are observed. […]

TEC = TEC (Homo sapiens, UniProt P42680); experiment: Inhibition of a panel of kinases (in vitro HotSpot kinase assay, 33P-ATP, 1 μM ATP)
Procedure: as §1

SMILES: C[C@@H](NC(=O)c1noc(C(C)(C)C)n1)c1ccc(-c2ccnc3[nH]nc(N[C@@H]4CCN(C(=O)N(C)C)C4)c23)cc1
- IC50 (panel of kinases): 9.19 µM
- IC50 (Btk): 0.034 µM
- TEC/Btk (TEC; ratio of TEC IC50 to Btk IC50 (selectivity)): 292
- IC50 (TEC; read-out: TEC IC50, HotSpot kinase assay, 1 μM ATP): 9.92 µM
